Series [1] is described as follows: Ratio of AUC in rat hepatic portal vein blood to AUC in rat plasma. The class given is ADME, cell-free. The settings on record: in vivo.
The nature of series [2]: Hepatic extraction ratio in Sprague-Dawley rat at 10 mg/kg, po. Format: ADME, organism-based. The settings on record: in vivo, read-out: ERH. Also on record: dose 10 mg/kg, route oral.

As for `CS(=O)(=O)N(CC(=O)NCC1CC1)c1cc(C(F)(F)F)ccc1Cl`, the “Ratio AUC” value in series [1] is 52. The hepatic extraction ratio in series [2] is 0.98.

These data come from ChEMBL document CHEMBL2203047, “Discovery and SAR of a novel series of non-MPEP site mGlu₅ PAMs based on an aryl glycine sulfonamide scaffold” (Bioorg Med Chem Lett, 2012).
